Source: US11186579B2 (Gilead Sciences, Inc., priority 2018, dated 2021)

Sequences of proteins named here, by UniProt entry; tags and fusion partners are left off.
UniProt P14902, whole entry: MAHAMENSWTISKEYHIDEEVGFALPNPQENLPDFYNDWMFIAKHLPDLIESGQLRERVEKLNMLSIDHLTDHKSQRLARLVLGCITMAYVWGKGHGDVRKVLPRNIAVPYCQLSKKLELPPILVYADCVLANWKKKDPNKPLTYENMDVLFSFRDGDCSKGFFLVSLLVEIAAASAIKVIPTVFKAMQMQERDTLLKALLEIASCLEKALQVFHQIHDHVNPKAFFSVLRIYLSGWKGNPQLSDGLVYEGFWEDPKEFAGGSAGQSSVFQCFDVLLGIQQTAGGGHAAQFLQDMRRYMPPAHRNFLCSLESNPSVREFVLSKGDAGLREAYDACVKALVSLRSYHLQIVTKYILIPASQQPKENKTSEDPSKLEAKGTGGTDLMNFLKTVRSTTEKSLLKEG

Biological target: IDO1 (Homo sapiens, UniProt P14902)
Assay: Cell-Based (HeLa) Assay for Measurement of IDO1 Inhibition
Details: H1-HeLa cells, IDO1 induced with IFNγ, 48 hour incubation, kynurenine in supernatant (absorbance 480 nm); geometric mean of minimum four determinations

Molecule Cc1ncc(-c2cccc3c(-c4cccc(F)c4F)cnn23)cc1C(=O)Nc1ccc(F)cc1 has an EC50 of 441 nM.
